This is an account of results in patent publication US11370781B2, “Combination therapy for treating cancer” (Epizyme, Inc., priority 2012, dated 2022).

This assay concerns WSU-DLCL2 human lymphoma cells. Description: Efficacy study in WSU-DLCL2 xenograft model. In kind it is in vivo. The following applies: Compound 44 single agent, 150 mg/kg TID and 225 mg/kg BID; p<0.05.

For the compound `CCN(c1cc(-c2ccc(CN3CCOCC3)cc2)cc(C(=O)NCc2c(C)cc(C)[nH]c2=O)c1C)C1CCOCC1` [Compound 44, N-((4,6-dimethyl-2-oxo-1,2-dihydropyridin-3-yl)methyl)-5-(ethyl (tetrahydro-2H-pyran-4-yl)amino)-4-methyl-4′-(morpholinomethyl)-[1,1′-biphenyl]-3-carboxamide], the “tumor volume compared to vehicle treated mice” value is listed as “significantly smaller tumors by volume”.
